Data from PubChem BioAssay (NCI).
Where “and” joins values, the source holds several entries; their conditions need not be identical. Identical values can stand only once. The entries are a selection whose mix differs from that of the whole data set.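 The endpoint reported here, percent growth, reads 100 for growth as untreated, 0 for no net growth and -100 for all cells dead.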 Calls of active or inactive are those of the source. How the source made its calls: active means growth percent below 10; inactive means the rest.

Tests used:
Assay in all cases: NCI-60 one-dose screen, 48 h (100 = growth as untreated, 0 = no growth, -100 = all killed)
DU-145 prostate = settings: 10 µM unless noted
K-562 leukemia = settings: 10 µM unless noted
MALME-3M melanoma = settings: 10 µM unless noted
MDA-MB-231 breast = settings: 10 µM unless noted
RXF 393 renal = settings: 10 µM unless noted
SF-268 CNS = settings: 10 µM unless noted
SF-295 CNS = settings: 10 µM unless noted
SF-539 CNS = settings: 10 µM unless noted
UACC-257 melanoma = settings: 10 µM unless noted
M14 melanoma = settings: 10 µM unless noted
HCT-15 colon = settings: 10 µM unless noted
HT29 colon = settings: 10 µM unless noted
SNB-75 CNS = settings: 10 µM unless noted
SNB-19 CNS = settings: 10 µM unless noted
U251 CNS = settings: 10 µM unless noted
PC-3 prostate = settings: 10 µM unless noted
SK-MEL-5 melanoma = settings: 10 µM unless noted
UACC-62 melanoma = settings: 10 µM unless noted
LOX IMVI melanoma = settings: 10 µM
SK-MEL-28 melanoma = settings: 10 µM unless noted

Measured: growth

N/C(=N/[N+](=O)[O-])N(CCBr)N=O
inactive: DU-145 prostate 104% | K-562 leukemia 86.2% | MALME-3M melanoma 102% | MDA-MB-231 breast 109% | RXF 393 renal 109% | SF-268 CNS 95.2% | SF-295 CNS 99.2% | SF-539 CNS 102% | UACC-257 melanoma 96.6% | M14 melanoma 104% | HCT-15 colon 96.6% | HT29 colon 97% | SNB-75 CNS 86.2% | SNB-19 CNS 102% | U251 CNS 97% | PC-3 prostate 97.5% | SK-MEL-5 melanoma 108% | UACC-62 melanoma 105% | LOX IMVI melanoma 38.9% | SK-MEL-28 melanoma 110%

CCOP(=O)(CCBr)OCC
inactive: DU-145 prostate 106% and 109% | K-562 leukemia 102% and 116% | MALME-3M melanoma 98.3% | MDA-MB-231 breast 123% and 98.5% | RXF 393 renal 97.2% and 95.6% | SF-268 CNS 110% and 102% | SF-295 CNS 113% and 98.7% | SF-539 CNS 97.4% and 104% | UACC-257 melanoma 106% and 88.4% | M14 melanoma 108% and 104% | HCT-15 colon 97.9% and 102% | HT29 colon 107% and 112% | SNB-75 CNS 87.2% and 85.7% | SNB-19 CNS 112% and 107% | U251 CNS 99.5% and 97.4% | PC-3 prostate 94% and 102% | SK-MEL-5 melanoma 99.1% and 99.3% | UACC-62 melanoma 105% and 109% | LOX IMVI melanoma 100% and 99.1% | SK-MEL-28 melanoma 103% and 106%

O=[N+]([O-])c1cc2cn[nH]c2cc1[N+](=O)[O-]
inactive: DU-145 prostate 127% | K-562 leukemia 103% | MALME-3M melanoma 103% | MDA-MB-231 breast 78.4% | RXF 393 renal 120% | SF-268 CNS 106% | SF-295 CNS 95.9% | SF-539 CNS 110% | UACC-257 melanoma 105% | M14 melanoma 110% | HCT-15 colon 117% | HT29 colon 106% | SNB-75 CNS 91.4% | SNB-19 CNS 102% | U251 CNS 92.6% | PC-3 prostate 83.5% | SK-MEL-5 melanoma 99.1% | UACC-62 melanoma 90.8% | LOX IMVI melanoma 101% | SK-MEL-28 melanoma 113%

O=[N+]([O-])c1cc(Cl)cc([N+](=O)[O-])c1O
inactive: DU-145 prostate 116% | K-562 leukemia 105% | MALME-3M melanoma 114% | MDA-MB-231 breast 109% | RXF 393 renal 114% | SF-268 CNS 104% | SF-295 CNS 102% | SF-539 CNS 107% | UACC-257 melanoma 87.9% | M14 melanoma 102% | HCT-15 colon 109% | HT29 colon 103% | SNB-75 CNS 105% | SNB-19 CNS 98.4% | U251 CNS 95.8% | PC-3 prostate 93.5% | SK-MEL-5 melanoma 101% | UACC-62 melanoma 89.9% | LOX IMVI melanoma 96.2% | SK-MEL-28 melanoma 104%

CCN(CCCl)C1c2ccccc2-c2ccccc21
inactive: DU-145 prostate 102% | K-562 leukemia 100% | MALME-3M melanoma 88.2% | MDA-MB-231 breast 98.6% | RXF 393 renal 102% | SF-268 CNS 102% | SF-295 CNS 99.7% | SF-539 CNS 103% | UACC-257 melanoma 94% | M14 melanoma 97% | HCT-15 colon 102% | HT29 colon 92.3% | SNB-75 CNS 92% | SNB-19 CNS 94.4% | U251 CNS 97.6% | PC-3 prostate 89.5% | SK-MEL-5 melanoma 94% | UACC-62 melanoma 92.5% | LOX IMVI melanoma 93.6% | SK-MEL-28 melanoma 104%

CCOC(=O)N1CCN(CCCl)CC1
inactive: DU-145 prostate 110% | K-562 leukemia 107% | MALME-3M melanoma 108% | MDA-MB-231 breast 111% | RXF 393 renal 105% | SF-268 CNS 109% | SF-295 CNS 96.1% | SF-539 CNS 97.9% | UACC-257 melanoma 109% | M14 melanoma 99.1% | HCT-15 colon 96.1% | HT29 colon 102% | SNB-75 CNS 82.4% | SNB-19 CNS 123% | U251 CNS 103% | PC-3 prostate 99% | SK-MEL-5 melanoma 99.4% | UACC-62 melanoma 107% | LOX IMVI melanoma 105% | SK-MEL-28 melanoma 104%

O=[N+]([O-])c1cc(Cl)c(O)c([N+](=O)[O-])c1
inactive: DU-145 prostate 110% | K-562 leukemia 98.1% | MALME-3M melanoma 111% | MDA-MB-231 breast 96.9% | RXF 393 renal 108% | SF-268 CNS 101% | SF-295 CNS 103% | SF-539 CNS 107% | UACC-257 melanoma 81.7% | M14 melanoma 103% | HCT-15 colon 107% | HT29 colon 95.8% | SNB-75 CNS 109% | SNB-19 CNS 100% | U251 CNS 93.8% | PC-3 prostate 93.3% | SK-MEL-5 melanoma 97% | UACC-62 melanoma 93.2% | LOX IMVI melanoma 105% | SK-MEL-28 melanoma 103%
